Measured values reported in ChEMBL document CHEMBL5108052, “Histone Deacetylase and Enhancer of Zeste Homologue 2 Dual Inhibitors Presenting a Synergistic Effect for the Treatment of Hematological Malignancies” (J Med Chem, 2022).

Protein sequences, listed by entry. Tags and fused reporters are not part of them.
UniProt Q15910, whole entry: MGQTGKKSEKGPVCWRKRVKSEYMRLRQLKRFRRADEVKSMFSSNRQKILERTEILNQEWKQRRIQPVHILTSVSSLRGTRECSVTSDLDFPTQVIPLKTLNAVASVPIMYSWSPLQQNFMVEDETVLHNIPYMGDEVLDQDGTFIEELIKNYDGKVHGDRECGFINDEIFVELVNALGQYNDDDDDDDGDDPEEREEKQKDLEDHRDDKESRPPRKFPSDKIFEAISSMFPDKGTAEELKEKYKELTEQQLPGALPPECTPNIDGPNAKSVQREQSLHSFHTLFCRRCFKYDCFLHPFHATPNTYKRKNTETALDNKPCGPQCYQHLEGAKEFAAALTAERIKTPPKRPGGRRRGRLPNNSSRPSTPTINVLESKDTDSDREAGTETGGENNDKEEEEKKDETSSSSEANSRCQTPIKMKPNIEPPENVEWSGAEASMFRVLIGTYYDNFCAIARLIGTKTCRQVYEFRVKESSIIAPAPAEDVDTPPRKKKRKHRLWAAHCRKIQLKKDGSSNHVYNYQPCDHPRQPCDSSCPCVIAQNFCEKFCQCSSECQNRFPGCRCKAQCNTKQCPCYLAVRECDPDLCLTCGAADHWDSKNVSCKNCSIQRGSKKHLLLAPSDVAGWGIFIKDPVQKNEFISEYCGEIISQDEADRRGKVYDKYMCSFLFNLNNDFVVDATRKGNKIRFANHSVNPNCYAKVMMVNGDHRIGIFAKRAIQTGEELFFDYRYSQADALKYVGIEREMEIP

Molecular target: Histone-lysine N-methyltransferase EZH2 (Homo sapiens, UniProt Q15910)
Experiment: not given
Conditions: not given

| IC50 | SMILES |
| --- | --- |
| 30 nM | Cc1cc(C)c(CNC(=O)c2cc(-c3ccc(N4CCN(C(C)C)CC4)nc3)cc3c2cnn3C(C)C)c(=O)[nH]1 |

Species: Homo sapiens
Experiment: not given
Conditions: time 90.0 sec

| SMILES | Ka |
| --- | --- |
| CCN(c1cc(-c2ccc(N3CCN(CCCCCCCCC(=O)NO)CC3)nc2)cc(C(=O)NCc2c(C)cc(C)[nH]c2=O)c1C)C1CCOCC1 | 1.01 10^5/M/s |
| Cc1cc(C)c(CNC(=O)c2cc(-c3ccc(NC(=O)CCCCCCC(=O)NO)cc3)cc3c2cnn3C(C)C)c(=O)[nH]1 | 1.19 10^5/M/s |
| Cc1cc(C)c(CNC(=O)c2cc(-c3ccc(N4CCN(CCCCCCCCC(=O)NO)CC4)nc3)cc3c2cnn3C(C)C)c(=O)[nH]1 | 4.83 10^5/M/s |
| Cc1cc(C)c(CNC(=O)c2cc(-c3ccc(N4CCN(Cc5ccc(C(=O)NO)cc5)CC4)nc3)cc3c2cnn3C(C)C)c(=O)[nH]1 | 1.16 10^5/M/s |
| Cc1cc(C)c(CNC(=O)c2cc(-c3ccc(N4CCN(C(C)C)CC4)nc3)cc3c2cnn3C(C)C)c(=O)[nH]1 | 6.43 10^5/M/s |
| Cc1cc(C)c(CNC(=O)c2cc(-c3ccc(N4CCN(Cc5ccc(C(=O)NO)o5)CC4)nc3)cc3c2cnn3C(C)C)c(=O)[nH]1 | 1.03 10^5/M/s |
| CCN(c1cc(-c2ccc(N3CCN(c4ncc(C(=O)NO)cn4)CC3)nc2)cc(C(=O)NCc2c(C)cc(C)[nH]c2=O)c1C)C1CCOCC1 | 8.71 10^4/M/s |
| CC[C@@H](C)n1cc(C)c2c(C(=O)NCc3c(C)cc(C)[nH]c3=O)cc(-c3ccc(N4CCN(c5ncc(C(=O)NO)cn5)CC4)nc3)cc21 | 2.66 10^5/M/s |

Second part, the compound after the results:

| Ka | SMILES |
| --- | --- |
| 1.75 10^4/M/s | Cc1cc(C)c(CNC(=O)c2cc(-c3ccc(N4CCN(C(=O)OC(C)(C)C)CC4)nc3)cc(NCCCCCCC(=O)NO)c2C)c(=O)[nH]1 |
| 2.72 10^5/M/s | Cc1cc(C)c(CNC(=O)c2cc(-c3ccc(N4CCN(C(=O)CCCCCCC(=O)NO)CC4)nc3)cc3c2cnn3C(C)C)c(=O)[nH]1 |
| 2.02 10^5/M/s | Cc1cc(C)c(CNC(=O)c2cc(-c3ccc(N4CCN(C(=O)OC(C)(C)C)CC4)nc3)cc(NCCCCC(=O)NO)c2C)c(=O)[nH]1 |
| 5.43 10^5/M/s | C=C(CCCCCNc1cc(-c2ccc(N3CCN(C(=O)OC(C)(C)C)CC3)nc2)cc(C(=O)NCc2c(C)cc(C)[nH]c2=O)c1C)NO |
| 7.25 10^4/M/s | Cc1cc(C)c(CNC(=O)c2cc(-c3ccc(N4CCN(C(=O)OC(C)(C)C)CC4)nc3)cc(NCCCCCCCC(=O)NO)c2C)c(=O)[nH]1 |
| 1.04 10^5/M/s | CC[C@@H](C)n1cc(C)c2c(C(=O)NCc3c(C)cc(C)[nH]c3=O)cc(-c3ccc(N4CCN(CCCCCCCCC(=O)NO)CC4)nc3)cc21 |

Tested on: HCT-116
Experiment: cells
Conditions: Homo sapiens, HCT-116, 72 h

| IC50 | SMILES |
| --- | --- |
| > 20000 nM | Cc1cc(C)c(CNC(=O)c2cc(-c3ccc(N4CCN(Cc5ccc(C(=O)NO)cc5)CC4)nc3)cc3c2cnn3C(C)C)c(=O)[nH]1 |
